{"sequences": {"note": "Amino acid sequences for entries named in this document (tags omitted). A change or cut given only in a name is not applied to a line headed by its entry.", "UniProt P41144": "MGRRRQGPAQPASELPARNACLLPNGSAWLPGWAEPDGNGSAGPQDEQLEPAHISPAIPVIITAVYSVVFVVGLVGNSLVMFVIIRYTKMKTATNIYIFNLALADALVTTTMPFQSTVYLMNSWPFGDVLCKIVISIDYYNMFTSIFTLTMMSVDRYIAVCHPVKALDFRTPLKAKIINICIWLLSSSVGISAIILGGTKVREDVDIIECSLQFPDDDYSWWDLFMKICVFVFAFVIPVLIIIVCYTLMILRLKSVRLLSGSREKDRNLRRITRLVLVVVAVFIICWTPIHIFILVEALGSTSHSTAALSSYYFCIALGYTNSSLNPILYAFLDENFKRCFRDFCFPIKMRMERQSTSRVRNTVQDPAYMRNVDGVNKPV"}, "source": "ChEMBL document CHEMBL1126095", "about": "“Incorporation of a novel conformationally restricted tyrosine analog into a cyclic, delta opioid receptor selective tetrapeptide (JOM-13) enhances delta receptor binding affinity and selectivity” (J Med Chem, 1992)", "molecular_target": "Kappa-type opioid receptor (Cavia porcellus, UniProt P41144)", "experiment": "Binding affinity against opioid receptor kappa from guinea pig brain homogenates, using [3H]U-69593 as radioligand.", "format": "tissue-based"}
{"smiles": "CC1(C)SSC[C@H](NC(=O)[C@@H](N)Cc2ccc(O)cc2)C(=O)N[C@@H](Cc2ccccc2)C(=O)N[C@@H]1C(=O)O", "values": [{"measurement": "Ki", "result": "> 10", "unit": "µM"}]}
